Source: PubChem
dFosB act-1 = mouse delta FosB homodimer activation; activation, % at 25 µM; 0.99% of 340,000 active; AID 493131; purified delta FosB, TAMRA-CDK5 oligo fluorescence polarization; percent of positive-control signal above neutral wells;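 active = mean activation above about 17%, with every replicate also reaching it, limit read from the data, passing the limit was not always enough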
CAL PDZ FP-1 = blocks peptide binding to human CAL PDZ domain | inhibition, % at 20 µM | 0.02% of 330,000 active | AID 504414 | purified CAL PDZ, TMR-peptide fluorescence polarization, 1 h;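 active = highest replicate inhibition of at least 40%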;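 note: plate controls were DMSO neutral control wells for no effect and unlabeled competitor peptide control wells for full effect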
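Material: tagged CAL PDZ domain; buffer or medium: 25 mM sodium phosphate pH 7.4, 150 mM NaCl, TCEP, IgG, Thesit; compound dosing: single point, 20 µM; schedule: 1 h incubation at room temperature before polarization reading; measured by: FP readout, S and P plane fluorescence; read-out basis: percent inhibition from loss of millipolarization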
DYRK1A inh = blocks rat Dyrk1A kinase activity. ADP-Glo luminescence, NFATc1 peptide. inhibition, % at 12.5 µM. 0.43% of 310,000 active; in the data active = inhibition above about 50%;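 note: plate controls were vehicle with enzyme for no effect and no enzyme for full effect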
CDK5 inh = blocks human CDK5/p35 kinase activity; 0.01% of 330,000 active; Q00535+Q15078; Recombinant CDK5/p35, ADP-Glo luminescence, 60 min; inhibition, % at 10 µM;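 active = highest replicate inhibition of at least 50% and at least 75% of replicates reaching 50%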;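 note: plate controls were DMSO neutral control for no effect and GW8510 at 10 µM for full effect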
UUG fidelity = modulators of start codon recognition fidelity in yeast. activity score, % at 18.7 µM. S. cerevisiae UUG-firefly luciferase reporter, luminescence/redox ratio. 350,000 compounds, 0.13% hits;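 active means replicate mean at a twofold rise or more, about +100% in these data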;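 further: firefly luciferase made from a UUG start codon reports start codon fidelity; reporter light over untreated wells divided by growth signal over untreated wells; some hits fall short of that in this replicate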
CAL PDZ FP-2 = blocks peptide binding to the human CAL PDZ domain; Q9HD26; purified CAL PDZ, TMR-peptide fluorescence polarization, 1 h; inhibition, % at 24.9 µM; 0.92% of 300,000 active; AID 602252;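 active = mean inhibition of at least 30% with at least half of replicates also reaching 30%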;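 note: 0% = DMSO neutral control and 100% = excess unlabeled competitor peptide PRC23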
dFosB act-2 = activators of mouse delta FosB homodimer DNA binding; shares compounds with dFosB act-1; purified delta FosB, TAMRA-CDK5 oligo fluorescence polarization; normalised: neutral wells 0, positive control 100; activation, % at 24.9 µM; 2,400 tested, under 10 active;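 active = highest replicate activation at or above 34% and every replicate reaching that threshold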;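 note: higher polarization means more probe DNA bound by delta FosB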
Starred values were filed as active, the others as inactive; . = no result given. Sampled rows, rich in hits. Any-hit rate of the full collection: about 1.7%.

structure	dFosB act-2	DYRK1A inh	UUG fidelity	CAL PDZ FP-2	CDK5 inh	CAL PDZ FP-1	dFosB act-1
O=C(NC(=S)Nc1cccc(NC(=O)c2ccc(Cl)cc2Cl)c1)c1cccs1	-0.7	5.7	-11.3	-3.5	1.6	-1.8	43.9*
Cc1ccc(CNC(=O)c2nnn(CC(=O)Nc3cc(C)cc(C)c3)c2N)cc1	-6.7	0.5	-14.3	1.7	-4.8	-2.3	87.7*
Cc1ccc(NC(=O)Cn2nnc(C(=O)NCc3ccc(Cl)cc3)c2N)cc1F	0.7	-2.3	-15.2	-2.2	0.9	-2.5	76.9*
CCOc1ccccc1NC(=O)Cn1nnc(C(=O)NCc2ccco2)c1N	3.5	2.9	-42.1	7.4	0.1	-1.8	28.2*
Cc1ccc(CNC(=O)Cn2nnc(C(=O)Nc3cc(C)ccc3C)c2N)cc1	0.5	-4.2	6.6	-1.5	1.3	-2.1	35.6*
Cc1cc(C)cc(NC(=O)Cn2nnc(C(=O)NCc3ccc4c(c3)OCO4)c2N)c1	1.8	4.2	-9.2	.	-3.4	-0.8	76.9*
CSc1cccc(NC(=O)c2nnn(CC(=O)Nc3cc(C)cc(C)c3)c2N)c1	0.1	4.1	-6.1	-2.5	-0.2	-3.3	64.2*
COc1ccc(NC(=O)Cn2nnc(C(=O)NCc3ccco3)c2N)cc1	.	.	-15.6	-1.1	.	-1.6	3.9
Cc1ccc(NC(=O)c2nnn(CC(=O)Nc3ccccc3)c2N)cc1C	.	1.4	-16.9	-0.7	-7.0	-1.4	0.0
Cc1cc(C)cc(NC(=O)Cn2nnc(C(=O)NCc3ccco3)c2N)c1	6.9	7.0	-12.8	.	1.4	0.0	31.5*
Cc1ccccc1S(=O)(=O)N[C@H]1CC[C@H](CCNS(=O)(=O)c2cccc(F)c2)O[C@@H]1CO	.	.	17.0	.	.	.	.
N#C/C(=C\c1cn(Cc2ccccc2F)c2ccccc12)C(=O)NCc1ccco1	3.8	-7.7	.	0.2	0.9	-1.1	24.3*
Fc1cccc(/C=N/NC(=S)Nc2ccccc2Cl)c1	.	-7.8	.	-2.0	-0.6	0.0	-4.6
Fc1ccc(NC(=S)N/N=C/c2cccc(Br)c2)c(F)c1	2.0	-9.2	-16.6	-4.1	-1.0	-0.5	36.4*
CCCNC(=O)Nc1ccc2c(c1)OC[C@H](C)N(Cc1ccncc1)C[C@@H](C)[C@@H](OC)CN(C)C2=O	.	.	-4.3	.	.	.	.
Clc1ccc(-c2nnc(NCc3ccccc3)c3ccccc23)cc1	5.6	4.5	-26.8	.	0.1	-0.7	18.0*
Cc1nc2cc(C(=O)OCC(=O)NC34CC5CC(CC(C5)C3)C4)ccc2n1-c1ccccc1	-0.7	3.9	-7.3	-4.5	1.4	-3.1	65.4*
O=C(C[C@@H]1CC[C@@H](NC(=O)Nc2ccccc2)[C@H](CO)O1)NCc1ccccn1	.	.	-15.7	.	.	.	.
NC(N)=NS(=O)(=O)c1ccc(NC(=S)NC(=O)/C=C/c2ccccc2)cc1	2.7	-3.2	-11.3	-1.5	1.0	-0.2	22.2*
COc1ccc(/C=C/C(=O)NC(=S)Nc2ccccc2)cc1OC	-0.3	-0.5	-16.3	-4.0	1.2	-1.4	32.9*
COc1ccc(NC(=S)NCc2ccc(S(N)(=O)=O)cc2)cc1OC	.	-3.4	-18.8	7.5	0.3	-0.5	2.7
COc1ccc(/C=C/C(=O)NC(=S)Nc2ccc(S(N)(=O)=O)cc2)cc1OC	1.6	-1.0	-15.3	-4.5	-1.4	-1.2	46.6*
COc1ccc(/C=C/C(=O)Nc2ccc(-n3nncc3-c3ccc(OC)c(OC)c3)cc2)cc1OC	-1.6	1.3	-10.9	-2.4	-0.8	-13.0	45.8*
COc1ccc(-c2cnnn2-c2ccc(NC(=O)/C=C/c3ccc(OC)c(OC)c3)cc2)cc1	.	-3.5	.	-2.8	-0.5	-4.0	2.2
C[C@@H]1CN([C@H](C)CO)C(=O)c2cccc(NC(=O)C3CCCCC3)c2O[C@@H]1CN(C)C	.	.	5.3	.	.	.	.
Cc1noc(C)c1NC(=O)N(C)C[C@@H]1Oc2ccc(NC(=O)C3CC3)cc2CC(=O)N([C@H](C)CO)C[C@H]1C	.	.	-3.4	.	.	.	.
CS(=O)(=O)Nc1ccc2c(c1)[C@H]1C[C@H](CC(=O)NCC(F)(F)F)O[C@@H](CO)[C@H]1O2	.	.	-15.3	.	.	.	.
N#C[C@H]1[C@@H](c2ccc(C#CC3CCCCC3)cc2)[C@H](CO)N1C(=O)c1cccc(F)c1	.	.	14.4	.	.	.	.
O=C(/C=C/c1ccc(Cl)cc1)NC(=S)Nc1ccc(NC(=O)c2ccco2)cc1	0.3	-2.4	.	-2.3	0.8	-1.7	84.6*
CC(=O)Nc1ccc(NC(=S)NC(=O)/C=C/c2ccc(Cl)cc2)cc1	.	-2.7	.	-4.9	0.5	-1.6	-8.5
Cc1ccc(NC(=O)Cn2cnc3c(nnn3Cc3ccc(F)cc3)c2=O)cc1	0.5	-1.5	.	-4.9	0.2	-1.5	22.8*
COC(=O)c1ccc(NC(=O)Cn2cnc3c(nnn3-c3cccc(OC)c3)c2=O)cc1	-0.2	5.6	-8.7	.	-0.1	0.1	36.8*
COc1ccc(-n2nnc3c(=O)n(CC(=O)N4CCCc5ccccc54)cnc32)cc1	2.6	-3.3	2.4	-8.2	1.4	-1.0	34.8*
O=C(Cn1cnc2c(nnn2Cc2ccc(F)cc2)c1=O)Nc1ccc2c(c1)OCCO2	-0.2	-5.8	-7.3	4.1	0.8	-0.2	27.2*
O=C(Cn1cnc2c(nnn2-c2ccc(F)cc2)c1=O)N1CCCc2ccccc21	.	-1.1	0.8	-0.3	2.5	-3.3	-4.4
O=C(Cn1cnc2c(nnn2Cc2ccc(F)cc2)c1=O)Nc1cccc(F)c1	.	0.2	.	-8.3	-1.0	-1.5	10.7
COCC#Cc1cnc2c(c1)C(=O)N([C@H](C)CO)C[C@H](C)[C@H](CN(C)C(=O)c1cnccn1)O2	.	.	-6.0	.	.	.	.

Some of the entries above, reformatted:
COc1ccc(-n2nnc3c(=O)n(CC(=O)N4CCCc5ccccc54)cnc32)cc1
  dFosB act-2: 2.6; DYRK1A inh: -3.3; UUG fidelity: 2.4; CAL PDZ FP-2: -8.2; CDK5 inh: 1.4; CAL PDZ FP-1: -1.0; dFosB act-1: 34.8*

O=C(Cn1cnc2c(nnn2Cc2ccc(F)cc2)c1=O)Nc1ccc2c(c1)OCCO2
  dFosB act-2: -0.2; DYRK1A inh: -5.8; UUG fidelity: -7.3; CAL PDZ FP-2: 4.1; CDK5 inh: 0.8; CAL PDZ FP-1: -0.2; dFosB act-1: 27.2*

O=C(Cn1cnc2c(nnn2-c2ccc(F)cc2)c1=O)N1CCCc2ccccc21
  dFosB act-2: .; DYRK1A inh: -1.1; UUG fidelity: 0.8; CAL PDZ FP-2: -0.3; CDK5 inh: 2.5; CAL PDZ FP-1: -3.3; dFosB act-1: -4.4

O=C(Cn1cnc2c(nnn2Cc2ccc(F)cc2)c1=O)Nc1cccc(F)c1
  dFosB act-2: .; DYRK1A inh: 0.2; UUG fidelity: .; CAL PDZ FP-2: -8.3; CDK5 inh: -1.0; CAL PDZ FP-1: -1.5; dFosB act-1: 10.7
